This assay addresses CD80-CD28 interaction (Homo sapiens, UniProt P33681). As to the kind of experiment: cell free Homogenous Time Resolved Fluorescence (HTRF) assay, inhibition of the CD80-CD28 interaction. The following applies: read-out: Activity (EC50 in summary form), 4 hours at room temperature.

The chains behind the UniProt entries cited, without tags or fusion partners. Residues count along the entry.
UniProt P33681, 35-242 limits assumed: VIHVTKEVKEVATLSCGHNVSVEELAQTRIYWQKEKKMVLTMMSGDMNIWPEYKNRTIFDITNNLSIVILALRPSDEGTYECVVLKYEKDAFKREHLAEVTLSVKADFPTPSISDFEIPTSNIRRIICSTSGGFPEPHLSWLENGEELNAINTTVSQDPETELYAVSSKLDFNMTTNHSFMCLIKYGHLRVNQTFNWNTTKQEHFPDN

A word on the EC50: it is the concentration giving half of the maximal effect.

Structures are written as SMILES. Where a name gives a salt, the structure may show the parent alone.

In the case of `CN(C)CCCNC(=O)c1ccc(-n2nc3c4cccc(F)c4[nH]cc-3c2=O)cc1` [Example 66, N-(3-Dimethylaminopropyl)-4-(6-fluoro-3-oxo-3,5-dihydro-pyrazolo[4,3-c]quinolin-2-yl]-benzamide hydrochloride], the EC50 was under 1000 nM.
In the case of `CN(C)CCCCCCNC(=O)c1ccc(-n2nc3c4cccc(F)c4[nH]cc-3c2=O)cc1`, the EC50 was under 1000 nM.
Turning to `CN1C(C)(C)CC(NC(=O)c2ccc(-n3nc4c5cccc(F)c5[nH]c(C5CC5)c-4c3=O)cc2)CC1(C)C`, the EC50 is under 1000 nM.
Turning to `CC1(C)CC(NC(=O)c2ccc(-n3nc4c5cccc(F)c5[nH]c(C5CC5)c-4c3=O)cc2)CC(C)(C)N1`, the EC50 was under 1000 nM.
`CCCC(C)C(=O)Nc1ccc(-n2nc3c4cccc(F)c4[nH]cc-3c2=O)cc1` (stereo not drawn) [Example 2, 2-Methyl-pentanoic acid [4-(6-fluoro-3-oxo-3,5-dihydro-pyrazolo[4,3-c]quinolin-2-yl)-phenyl]-amide]: the EC50 was under 1000 nM.
For `CN(C)CCCNC(=O)c1ccc(-n2nc3c4ccccc4[nH]c(C4CC4)c-3c2=O)cc1` [Example 65, N-(3-Dimethylaminopropyl)-4-(4-cyclopropyl-3-oxo-3,5-dihydro-pyrazolo[4,3-c]quinolin-2-yl]-benzamide], the EC50 is under 1000 nM.
